# How the values were obtained:
# Cathepsin B = Cathepsin B (Homo sapiens, UniProt P07858); assay: Proteolytic activity assay: cleavage of fluorogenic peptides by cathepsin B; type: biochemical; conditions: substrate cleaved by Cathepsin B
# Description: (§1) Assay was done in a reaction mixture containing 200 mM acetate buffer, pH 5.5, 4 mM EDTA and 8 mM DTT. Following a 20 minutes incubation at 37° C., fluorescence released due to proteolytic activity was determined using a BMG POLARstar™ Galaxy fluorometer: excitation at 390 nm and emission at 460 nm.
# Cathepsin L = biological target: T1, Cathepsin L (Homo sapiens, UniProt P07711); assay: Proteolytic activity assay: cleavage of fluorogenic peptides by cathepsin L; type: biochemical; conditions: substrate cleaved by Cathepsin L
# T1 construct: purchased Calbiochem
# Description: as §1
Activity (δfluorescence) (Cathepsin B),Activity (δfluorescence) (Cathepsin L),Substance
53337,–,"Z-RR-AMC [Cathepsin B-substrate, reference compound]"
–,38254,"Z-FR-AMC [Cathepsin L-substrate, reference compound]"

# From patent publication US20050042213A1, “Methods and pharmaceutical compositions for modulating heparanase activation and uses thereof” (InSight Biopharmaceuticals Ltd., priority 2003, published 2005)
